Patent publication US20240109930A1, “TRIAZOLYL-METHYL SUBSTITUTED ALPHA-D-GALACTOPYRANOSIDE DERIVATIVES” (Idorsia Pharmaceuticals Ltd, priority 2021, published 2024)

Sequences of proteins named here, by UniProt entry; tags and fusion partners are left off.
UniProt P17931, whole entry: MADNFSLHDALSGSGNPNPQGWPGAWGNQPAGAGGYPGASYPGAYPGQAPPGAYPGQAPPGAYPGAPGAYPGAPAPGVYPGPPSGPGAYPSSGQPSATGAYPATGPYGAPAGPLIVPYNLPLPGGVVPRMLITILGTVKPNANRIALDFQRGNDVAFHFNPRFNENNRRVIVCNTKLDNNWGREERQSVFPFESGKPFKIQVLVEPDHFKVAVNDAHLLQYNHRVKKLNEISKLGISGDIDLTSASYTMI

Target: human Gal-3 (hGal-3) (Homo sapiens (Human), UniProt P17931)
Test: Competitive binding assay: biotinylated hGal-3 binding to microplate-adsorbed asialofetuin (ASF)
Conditions: read-out: Gal-3 IC50, IC50 values from several measurements given as geomean
Method: The inhibitory activity of compounds is determined in competitive binding assays. This spectrophotometric assay measures the binding of biotinylated human Gal-3 (hGal-3) or human Gal-1 (hGal-1), respectively, to a microplate-adsorbed glycoprotein, asialofetuin (ASF) (Proc Natl Acad Sci USA. 2013 Mar. 26; 110(13):5052-7.). Alternatively, and preferably, a human Gal-1 version in which all six cysteines are substituted by serines may be used.
Briefly, compounds are serially diluted in DMSO (working dilutions). ASF-coated 384well plates are supplemented with 22.8 μL/well of biotinylated hGal-3 or hGal-1 in assay buffer (i.e. 300-1000 ng/mL biotinylated hGal-3 or hGal-1) to which 1.2 μL of compound working dilutions are added and mixed.
Plates are incubated for 3 hours at 4° C., then washed with cold assay buffer (3×50 uL), incubated for 1 hour with 25 μL/well of a streptavidin-peroxidase solution (diluted in assay buffer to 80 ng/mL) at 4° C., followed by further washing steps with assay buffer (3×50 uL). Finally, 25 μL/well of ABTS substrate is added. OD (410 nm) is recorded after 30 to 45 min and IC50 values are calculated.
The calculated IC50 values may fluctuate depending on the daily assay performance. Fluctuations of this kind are known to those skilled in the art. IC50 values from several measurements are given as geomean values.

IC50 | Structure (SMILES)
0.03 µM | CO[C@@H]1[C@@H](n2cc(-c3ccc(C#N)c(F)c3F)nn2)[C@@H](O)[C@@H](CO)O[C@@H]1Cc1cn(C2(C(F)F)CCC2)nn1
0.06 µM | COC(=O)C(C)(C)n1cc(C[C@H]2O[C@H](CO)[C@H](O)[C@H](n3cc(-c4ccc(Cl)c(F)c4F)nn3)[C@H]2OC)nn1
0.06 µM | COC(=O)C(C)(C)n1cc(C[C@H]2O[C@H](CO)[C@H](O)[C@H](n3cc(-c4ccc(C)c(F)c4F)nn3)[C@H]2OC)nn1
